For assay [1], the target named is human liver cathepsin L (Homo sapiens, UniProt P07711). The experiment in a line: Cathepsin L assay, IC50 determination.
Assay [2] has as its target Human liver cathepsin B (Homo sapiens, UniProt P07858). The experiment in a line: Cathepsin B assay, IC50 determination. Conditions: read-out: IC50 Cat B; Table 1. How it is done: (§1) Human spleen cathepsin S (Calbiochem 219344, 40 ng/mL) was assayed using 15 microM Z-Phe-Arg-AMC substrate. Human liver cathepsin B (Calbiochem 219362, 65 ng/mL) was assayed using 15 microM Z-Arg-Arg-AMC substrate (Bachem I-1135). All reactions were performed in 20 mM sodium acetate buffer containing 1 mM EDTA and 5 mM cysteine, pH 5.5.
IC50 determinations were conducted with the following assay buffer: 20 mM sodium acetate, 1 mM EDTA, and 5 mM cysteine, pH 5.5. Compounds were serially diluted in DMSO and transferred into a 96-well Corning 3686 assay microplate to give a 16-point two-fold serial dilution dose response ranging from 25 microM to 760 pM. Human liver cathepsin L (Calbiochem 219402) was activated by incubating with assay buffer for 30 min. Upon activation, cathepsin L (300 pM, 8.7 ng/mL) was incubated with 1 microM Z-Phe-Arg-AMC substrate (Sigma C9521) and test compound in […] of assay buffer for 1 hour at room temperature. Fluorescence of AMC released by enzyme-catalyzed hydrolysis of Z-Phe-Arg-AMC was read on a PerkinElmer Envision microplate reader (excitation 355 nm, emission 460 nm). Data were scaled using internal controls and fitted to a four-parameter logistic model (IDBS XLfit equation 205) to obtain IC50 values in triplicate.
Compound No. 1 was assayed for inhibition against papain and cathepsins B, G, K, S, and V. Papain from Carica papaya (Calbiochem 5125, 11 ng/mL), human cathepsin K (Calbiochem 342001, 35 ng/mL), human spleen cathepsin S (Calbiochem 219344, 40 ng/mL), and human cathepsin V (Calbiochem 219467, 39 ng/ml) were assayed using Z-Phe-Arg-AMC substrate at 20 μM, 20 μM, 15 μM, and 1 μM, respectively. Human liver cathepsin B (Calbiochem 219362, 65 ng/mL) was assayed using 15 μM Z-Arg-Arg-AMC substrate (Bachem I-1135). Human neutrophil cathepsin G (Calbiochem 219373, 4.2 μg/mL) was assayed using 15 μM Suc-Ala-Ala-Pro-Phe-AMC substrate (Sigma S9761). […] Reaction progress was monitored using the Envision microplate reader. IC50 values were measured in triplicate.

Sequences of proteins named here, by UniProt entry; tags and fusion partners are left off. Residues count along the entry.
UniProt P07711, 114-288 limits assumed: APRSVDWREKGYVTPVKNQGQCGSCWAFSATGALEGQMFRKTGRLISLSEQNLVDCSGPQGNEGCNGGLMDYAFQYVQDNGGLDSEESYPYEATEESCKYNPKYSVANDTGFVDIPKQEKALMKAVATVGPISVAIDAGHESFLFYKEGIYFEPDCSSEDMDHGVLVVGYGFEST
UniProt P07711, 292-333 limits assumed: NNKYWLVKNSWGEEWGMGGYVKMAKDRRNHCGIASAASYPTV
UniProt P25774, 115-331 limits assumed: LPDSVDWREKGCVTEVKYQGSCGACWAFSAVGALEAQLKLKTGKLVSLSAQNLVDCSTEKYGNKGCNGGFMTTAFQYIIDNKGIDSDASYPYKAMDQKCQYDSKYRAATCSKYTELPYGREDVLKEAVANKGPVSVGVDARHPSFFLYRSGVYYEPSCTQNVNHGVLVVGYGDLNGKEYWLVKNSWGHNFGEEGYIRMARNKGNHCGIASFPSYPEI

For assay [3], the target named is Human spleen cathepsin S (Homo sapiens, UniProt P25774). The assay can be described thus: Cathepsin S assay, IC50 determination. Conditions: read-out: IC50 Cat S; Table 1. How it is done:
as §1
IC50 determinations were conducted with the following assay buffer: 20 mM sodium acetate, 1 mM EDTA, and 5 mM cysteine, pH 5.5. Compounds were serially diluted in DMSO and transferred into a 96-well Corning 3686 assay microplate to give a 16-point two-fold serial dilution dose response ranging from 25 microM to 760 pM. Human liver cathepsin L (Calbiochem 219402) was activated by incubating with assay buffer for 30 min. […]
Compound No. 1 was assayed for inhibition against papain and cathepsins B, G, K, S, and V. Papain from Carica papaya (Calbiochem 5125, 11 ng/mL), human cathepsin K (Calbiochem 342001, 35 ng/mL), human spleen cathepsin S (Calbiochem 219344, 40 ng/mL), and human cathepsin V (Calbiochem 219467, 39 ng/ml) were assayed using Z-Phe-Arg-AMC substrate at 20 μM, 20 μM, 15 μM, and 1 μM, respectively. […] Reaction progress was monitored using the Envision microplate reader. IC50 values were measured in triplicate.

Structures are written as SMILES. Like-named read-outs stand apart in the source and are kept apart here.

For orientation: IC50 means the midpoint of a concentration-inhibition curve. Consider `CCc1ccccc1NC(=O)CCC(=O)NNC(=O)[C@H](Cc1c[nH]c2ccccc12)NC(=O)OC(C)(C)C` [Compound No. 113], for which the IC50 in assay [1] (read-out: Cathepsin L inhibitory activity IC50, Table 17, n = 3, C, S or O at the sulfur position) is more than 50 µM.

`CC(C)(C)OC(=O)N[C@@H](COCc1ccccc1)C(=O)NNC(=O)SCC(=O)N1CCOc2ccccc21`: the IC50 in assay [2] was 13.7 µM; in assay [3] it was 3 µM.

Take `CC(C)(C)OC(=O)N[C@@H](CCC(=O)O)C(=O)NNC(=O)SCC(=O)N1CCCc2ccccc21`: the IC50 in assay [1] (read-out: IC50 Cat L, Table 1) was not below 25 µM; in assay [2] it was more than 25 µM; in assay [3], more than 25 µM. For `CCc1ccccc1NC(=O)CSC(=O)NNC(=O)[C@H](Cc1ccccc1)NC(=O)OC(C)(C)C`, in assay [2], the IC50 came to 3.06 µM.

For the origin of these results see US20110207726A1, “Inhibitors of Human Cathepsin L, Cathepsin B, and Cathepsin S” (The Trustees of the University of Pennsylvania, priority 2008, published 2011).
